Measured values: PubChem BioAssay AID493091 (Sanford-Burnham Center for Chemical Genomics, 2011)
Only a part is listed here, and it is no random draw. Some structures show a salt or complex split into parts, the way the source records it. The source made the active and inactive calls.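 Rule for the calls: active = inhibition above about 50% at 20 µM (limit read from the data); inactive = the rest.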

Sequences of proteins named here, by UniProt entry; tags and fusion partners are left off. Residues count along the entry.
UniProt Q9GZU7, 76-261 limits assumed: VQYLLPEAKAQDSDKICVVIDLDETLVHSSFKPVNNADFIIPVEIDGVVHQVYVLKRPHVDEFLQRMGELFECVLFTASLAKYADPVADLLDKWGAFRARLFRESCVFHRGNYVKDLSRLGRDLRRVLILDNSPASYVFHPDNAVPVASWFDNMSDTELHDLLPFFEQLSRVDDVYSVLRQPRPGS

target: Carboxy-terminal domain RNA polymerase II polypeptide A small phosphatase 1 (Homo sapiens) (UniProt Q9GZU7); experiment: inhibition of human SCP1 dephosphorylation activity – biochemical, colorimetric, uHTS, primary screen (AID 493091); conditions: Recombinant Scp1, phosphopeptide, malachite green phosphate absorbance; at 20 µM; hits give high values;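 note: plate controls were DMSO wells with enzyme for no effect and wells lacking enzyme for full effect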

SMILES | inhibition
CCN(CC)CCCOC(=O)C(O)(c1ccccc1)C1CCCCC1 (centres undefined) | inactive: -17.3%
Cc1c([N+](=O)[O-])cc([N+](=O)[O-])c(Br)c1[N+](=O)[O-] | inactive: -6.75%
O=[N+]([O-])c1cc([N+](=O)[O-])c(OC2CCCCC2O)c([N+](=O)[O-])c1 (centres undefined) | inactive: -5.15%
CCCCCOc1ccc(NP(C)(=O)Oc2ccc(Cl)cc2Cl)cc1 (centres undefined) | inactive: 5.27%
CP(=O)(Nc1ccccc1)Oc1ccc(F)cc1 (centres undefined) | inactive: -5.22%
COc1ccc(OP(C)(=O)Nc2ccc(SC(F)(F)F)cc2)cc1 (centres undefined) | inactive: -12.5%
CCOC(=O)c1ccc(NP(C)(=O)Oc2ccc(F)cc2)cc1 (centres undefined) | inactive: -10.7%
O=C(OCCN1CCN(CCOCc2ccccc2)CC1)C(O)(c1ccccc1)c1ccccc1 | inactive: -27.1%
O=C(OC1CN2CCC1CC2)c1ccc([N+](=O)[O-])cc1 (centres undefined) | inactive: -11.4%
COc1ccc2c(c1O)-c1c(O)c(OC)cc3c1[C@H](C2)[N+](C)(C)CC3.O=[N+]([O-])c1cc([N+](=O)[O-])c([O-])c([N+](=O)[O-])c1[O-] | inactive: 1.23%
CC(C)c1ccc(OP(C)(=O)Nc2ccc(SC(F)(F)F)cc2)cc1 (centres undefined) | inactive: -7.76%
CP(=O)(Nc1ccccc1F)Oc1ccccc1 (centres undefined) | inactive: 0.4%
CP(=O)(Nc1ccc2c(c1)OCCO2)Oc1ccccc1 (centres undefined) | inactive: -3.11%
Cc1ccccc1NP(C)(=O)Nc1ccccc1C | inactive: -5.63%
CP(=O)(Nc1ccc(SC(F)(F)F)cc1)Oc1ccc(F)cc1 (centres undefined) | inactive: -3.06%
CCOP(C)(=S)SCC(=O)NC(C)(CC)C(=O)O (centres undefined) | inactive: -5.99%
O=[N+]([O-])c1cc([N+](=O)[O-])c(NCC2CCS(=O)(=O)C2)c([N+](=O)[O-])c1 (centres undefined) | inactive: -5.09%
Cc1cc(-c2cccc3ccccc23)c(C)cn1.O=[N+]([O-])c1cc([N+](=O)[O-])c(O)c([N+](=O)[O-])c1 | inactive: -1.97%
O=[N+]([O-])c1ccc(OP2(=O)COCCO2)cc1 (centres undefined) | inactive: -1.75%
Cc1c(C(c2ccc3c(c2)OCO3)c2c(C)n(C)n(-c3ccccc3)c2=O)c(=O)n(-c2ccccc2)n1C.O=[N+]([O-])c1cc([N+](=O)[O-])c(O)c([N+](=O)[O-])c1 | inactive: -0.82%

SMILES | inhibition
COc1ccc(OP(C)(=O)Nc2cccc(Br)c2)cc1 (centres undefined) | inactive: -12.1%
COc1ccc(NP(C)(=O)Oc2ccccc2OC)cc1 (centres undefined) | inactive: 0.9%
CN(C)CCOC(=O)C(O)(c1ccccc1)C1CCCCC1 (centres undefined) | inactive: 8.88%
Nc1ccc2c(ccc3cccnc32)n1.O=[N+]([O-])c1cc([N+](=O)[O-])c(O)c([N+](=O)[O-])c1 | inactive: -6.97%
CP(=O)(OC12CC3CC(CC(C3)C1)C2)OC12CC3CC(CC(C3)C1)C2 | inactive: -10.7%
CCOC(=O)c1ccc(NP(C)(=O)Oc2ccc(Cl)cc2)cc1 (centres undefined) | inactive: -10.3%
CP(=O)(Nc1ccc(Cl)cc1)Oc1ccc(F)cc1 (centres undefined) | inactive: -2.46%
COc1ccccc1OP(C)(=O)Nc1ccccc1Br (centres undefined) | inactive: 2.01%
CC(C)(C)c1ccc(OP(C)(=O)O)cc1 | inactive: -3.44%
CN(C)C(=O)c1c([N+](=O)[O-])cc([N+](=O)[O-])cc1[N+](=O)[O-] | inactive: -3.26%
CCN(CC)CC(O)COC(=O)C(O)(c1ccccc1)C1CCCCC1 (centres undefined) | inactive: -9.5%
COc1ccc(OP(C)(=O)Nc2ccc(Br)cc2)cc1 (centres undefined) | inactive: -2.57%
CP(=O)(Oc1ccccc1)N1CCOC1=O (centres undefined) | inactive: 0.47%
CCc1ccc(OP(C)(=O)Nc2cccnc2)cc1 (centres undefined) | inactive: -2.92%
COc1ccccc1OP(C)(=O)Nc1c(C)n(C)n(-c2ccccc2)c1=O (centres undefined) | inactive: -3.29%
O=C(OCCCN1CCCC1)C(O)(c1ccccc1)C1CCCCC1 (centres undefined) | inactive: -7.3%
Cc1c(NP(C)(=O)Oc2ccc(C(C)C)cc2)c(=O)n(-c2ccccc2)n1C (centres undefined) | inactive: -5.02%
O=[N+]([O-])c1cc([N+](=O)[O-])c(Nc2ccccn2)c([N+](=O)[O-])c1 | inactive: -3.64%
CP(=O)(Nc1ccccn1)Oc1ccccc1 (centres undefined) | inactive: -3.29%
COc1ccccc1OP(C)(=O)Nc1ccc(C)cc1C (centres undefined) | inactive: 27.7%

SMILES | inhibition
COc1ccccc1OP(C)(=O)Nc1ccc(Br)cc1 (centres undefined) | inactive: -12.3%
CN(C)CCOC(=O)C(O)(c1ccccc1)C1CCCC1 (centres undefined) | inactive: -6.35%
COc1ccc(OP(C)(=O)Nc2ccccn2)cc1 (centres undefined) | inactive: -2.05%
CP(=O)(Nc1ccc(Cl)cc1Cl)Oc1ccccc1 (centres undefined) | inactive: 1.07%
CCCCCCCCCCCCCCCC1C[N+](C)(C)CCOP(C)(=O)O1 (centres undefined) | inactive: 9.6%
CP(=O)(OCCOc1ccccc1)OCCOc1ccccc1 | inactive: -14.2%
O=C1C(O)=C([N+](=O)[O-])C(=O)C(O)=C1[N+](=O)[O-] | active: 55.9%
Cc1cc(C)cc(OP(C)(=O)Nc2cccc(C(F)(F)F)c2)c1 (centres undefined) | inactive: 3.43%
COc1ccc(OP(C)(=O)Nc2ccccc2Br)cc1 (centres undefined) | inactive: -5.22%
COc1ccccc1OP(C)(=O)Nc1ccc(C)c(C)c1 (centres undefined) | inactive: -6%
CCOC(=O)c1ccc(NP(C)(=O)Oc2ccccc2)cc1 (centres undefined) | inactive: 2.73%
COc1ccccc1OP(C)(=O)Nc1ccc(C)cc1 (centres undefined) | inactive: 9.84%
Cc1ccc(NP(C)(=O)Oc2ccccc2)c(C)c1 (centres undefined) | inactive: 3.26%
COc1ccccc1OP(C)(=O)Nc1cc(Cl)ccc1C (centres undefined) | inactive: 1.45%
COc1ccc(OP(C)(=O)Nc2cccc(F)c2)cc1 (centres undefined) | inactive: -6.73%
Cc1cc(C)cc(OP(C)(N)=O)c1 (centres undefined) | inactive: 3.65%
O=[N+]([O-])c1cc([N+](=O)[O-])c(Nc2cccnc2)c([N+](=O)[O-])c1 | inactive: -6.15%
CC(C)(C)c1ccc(OP(C)(=O)Nc2ccc(SC(F)(F)F)cc2)cc1 (centres undefined) | inactive: -7.87%
Cc1cccc(C)c1OP(C)(N)=O (centres undefined) | inactive: -0.73%
